# This is a selection; strong and weak results do not stand in their true shares. Activity calls are given as the source filed them. The call rests on the fitted dose curve; in most records, active means well fitted curve in the direction sought with a large enough effect; inactive means no such curve, though single readings can be large or run the other way.
# Biological target: Alpha-galactosidase A (Homo sapiens) (UniProt P06280)
# Test: Counterscreen for Glucocerebrosidase Inhibitors: qHTS Assay for Coffee Bean alpha-Galactosidase at pH 5.9;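 further: plate controls were uninhibited enzyme for no effect and no-enzyme basal signal for full effect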
# Conditions: coffee bean alpha-galactosidase enzyme assay; at 76.9 µM (top of the series)
# Procedure, shortened: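 Green coffee bean enzyme (2 nM final) was incubated with compounds (0.7 nM–77 uM) and 4-methylumbelliferyl alpha-D-galactopyranoside (80 uM) in citrate buffer pH 5.9, 20 min at room temperature. High-pH stop; fluorescence 365/440 nm; AC50 from Hill fits.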
compound,measurement,value
N#[O+].[C-]#N.[C-]#N.[C-]#N.[C-]#N.[C-]#N.[Fe+2].[Na+].[Na+],"activity, negative = inhibition",inactive: 3.31%
